Measurements from patent US20080287445A1, “Prokineticin 2 receptor antagonists” (priority 2005, published 2008).

Tested on: rat ileum mucosa

Compound	blockade of the pro-secretory effect of PK1
CN1[C@@H]2CC[C@H]1C[C@@H](OC(=O)C(CO)c1ccccc1)C2 (some centres unmarked) [Atropine, reference compound]	not blocked
NC1=N[C@H](O)[C@H]2[C@H]3O[C@]4(O)O[C@@H]([C@@H](O)[C@@]2(N1)[C@@H]4O)[C@]3(O)CO [Tetrodotoxin, reference compound]	not blocked
